Compound activity deposited in PubChem by National Center for Advancing Translational Sciences (NCATS).
Mm-Cpn inhibitor – Inhibitors of TCP-1 ring complex (TRiC) of Methanococcus maripaludis (MmCpn): qHTS | Chaperonin Mm-Cpn (Methanococcus maripaludis) | purified Mm-Cpn ATPase, ADP Transcreener TR-FRET | Potency, µM (highest dose often 76.9 µM), actives largely listed as inhibitors | 0.031% of 330,000 active | AID 504842, 2011; active = well fitted inhibition curve with a large enough effect; inconclusive = small, poorly fitted or top-dose-only effect; also: nearly all actives have a fitted effect of over 80% in size
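ATPase read-out: TR-FRET ADP immunoassay (anti-ADP Eu cryptate vs ADP-d2), ex 320 nm, em 590/665 nm; signal drops as ADP forms. Enzyme 25 nM, ATP 10 uM, 30 min at 37°C after 10 min compound preincubation.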
Giardia kill – Small Molecules that selectively kill Giardia lamblia: qHTS; Giardia lamblia trophozoite viability; activity change, % at 7.66 µM, hits read low; 0.15% of 340,000 active; in the data active = activity change below about -80%; inconclusive = between about -30% and that limit;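 also: parasites exposed to compound for two days anaerobically before the ATP read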
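Viability, read as ATP luminescence: trophozoites at 100 cells/well, compound added, 48 hrs anaerobic at 37 deg C, then 15-30 min room-temperature development before reading.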
Rango-impB inh – qHTS Assay for Inhibitors of Rango (Ran-regulated importin-beta cargo) - Importin beta complex formation; Potency, µM (series often up to 92.2 µM); Importin subunit beta-1 (Homo sapiens), Q14974; Rango CFP/YFP FRET sensor + importin beta, 45 min; 0.031% of 340,000 active; also: nearly all actives have a fitted effect of over 15% in size
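Inhibition scored from the CFP 486 nm/YFP 530 nm FRET ratio 45 min after adding 0.125 microM importin beta to 50 nM Rango biosensor preincubated 5 min with compound (room temperature, PBS with DTT, Tween-20, BSA). No-importin wells as positive control.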
CCT chaperon mod – High-Throughput Screening for Modulators of Cytosolic Chaperonin Activity; activity change, % (no concentration beside the values), hits read low; purified chaperonin ATPase assay, HTRF ADP detection, 30 min; AID 651819, 2012; 0.3% of 360,000 active; in the data active = activity change below about -30%
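Enzyme 40 or 20 nM (batch-dependent) in Tris pH 7.4/KCl/MgCl2/DTT; cpd 76 uM single point; ATP 10 uM; 30 min 37 °C; Transcreener ADP HTRF detection, 30 min RT; ratio 665/615.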
Rango release inh – qHTS Assay for Inhibitors of RanGTP induced Rango (Ran-regulated importin-beta cargo) - Importin beta complex dissociation; Snurportin-1 (Homo sapiens) + GTP-binding nuclear protein Ran (Homo sapiens) + Importin …; Biochemical FRET Rango-importin beta, RanGTP-induced dissociation; 0.071% of 340,000 active; Potency, µM (titrated, usually from 46.1 µM); also: nearly all actives have a fitted effect of over 45% in size
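Rango (0.1 uM)–importin beta (0.25 uM) complex; RanGTP-RCC1 trigger; 45 min RT; CFP/YFP FRET read.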
A number is an active result; - = inactive; ? = inconclusive; . = no result given; ! = not active in a repeat. Shown are actives, neighbours in structure and some others; about 0.53% of the full set was active somewhere. Unless noted, calls follow the shape of the full dose curve.

Chains of the proteins cited; added tags and fusions are not shown.
Importin subunit beta-1 (Homo sapiens), Q14974, UniProt Q14974, whole entry, looked up: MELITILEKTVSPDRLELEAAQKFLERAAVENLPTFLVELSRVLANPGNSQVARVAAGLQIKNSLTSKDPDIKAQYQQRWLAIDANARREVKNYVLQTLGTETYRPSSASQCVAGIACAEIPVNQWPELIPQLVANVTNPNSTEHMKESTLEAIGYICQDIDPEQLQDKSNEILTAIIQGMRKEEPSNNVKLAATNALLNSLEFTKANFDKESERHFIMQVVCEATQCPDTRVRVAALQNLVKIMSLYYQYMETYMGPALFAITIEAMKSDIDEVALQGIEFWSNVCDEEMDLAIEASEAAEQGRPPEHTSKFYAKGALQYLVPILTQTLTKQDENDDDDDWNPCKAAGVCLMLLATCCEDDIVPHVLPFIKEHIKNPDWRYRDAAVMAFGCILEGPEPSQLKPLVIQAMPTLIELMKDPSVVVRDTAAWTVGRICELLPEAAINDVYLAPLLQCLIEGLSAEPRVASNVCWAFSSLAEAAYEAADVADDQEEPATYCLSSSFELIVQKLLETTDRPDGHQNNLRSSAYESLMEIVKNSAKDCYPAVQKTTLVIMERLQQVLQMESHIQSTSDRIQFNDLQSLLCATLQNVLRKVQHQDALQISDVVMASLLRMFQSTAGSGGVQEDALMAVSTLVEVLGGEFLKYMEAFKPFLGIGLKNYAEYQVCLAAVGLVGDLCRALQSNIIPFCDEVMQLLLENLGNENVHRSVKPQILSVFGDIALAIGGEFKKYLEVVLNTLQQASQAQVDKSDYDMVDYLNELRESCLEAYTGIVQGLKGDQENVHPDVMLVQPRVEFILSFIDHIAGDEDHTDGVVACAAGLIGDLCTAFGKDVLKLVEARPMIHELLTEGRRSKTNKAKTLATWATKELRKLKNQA

SMILES	Mm-Cpn inhibitor	Giardia kill	Rango-impB inh	CCT chaperon mod	Rango release inh
COc1cc(OC)c2c(c1)C(=O)OC2c1cc(OC)c(OC)cc1C (configuration not stated)	.	-	.	.	.
O=C(O)c1ccccc1NC(=O)C(Cc1ccccc1)N1C(=O)c2ccccc2C1=O (configuration not stated)	-	-	-	-32	-
CCC(C(=O)Nc1ccccc1C(=O)N1CCCC1)N1C(=O)c2ccccc2C1=O (configuration not stated)	-	-	-	-	-
O=C(c1ccco1)N1CCN(c2nc3ccccc3n3nnnc23)CC1	-	-	-	-	-
c1ccc(CC2CCN(c3nc4ccccc4n4nnnc34)CC2)cc1	-	-	-	-32	-
COc1ccc(N2CCN(C(c3ccccc3)c3nnnn3C(C)C)CC2)cc1 (configuration not stated)	.	-	.	.	.
Cc1cc(O)c(CN(C)C)c2c1C(=O)/C(=C/c1ccco1)O2	-	-	?	-	26µM
CN1CCN(c2oc(-c3ccc(OCc4ccc(Cl)cc4)cc3)nc2C#N)CC1	.	-	.	.	.
O=S(=O)(Nc1ccccn1)c1ccc(Cl)cc1	-	-	-	-	-
O=S(=O)(Nc1ccccn1)c1ccc(-n2cccn2)cc1	-	-	-	-82	-
CCOc1ccccc1CNS(=O)(=O)c1ccc2c(c1)C(C)(C)C(=O)N2C	-	-	-	-	-
Cc1ccc(C)c(CNS(=O)(=O)c2ccc3c(c2)C(C)(C)C(=O)N3C)c1	-	-	-	-34	-
COc1ccc(N2CC(C(=O)N3CCC4(CC3)CC(=O)c3ccccc3O4)CC2=O)cc1 (configuration not stated)	-	-	-	-56	-
COc1cc(/C=C\C(=O)OCn2nnc3ccccc3c2=O)cc(OC)c1OC	-	-	-	-36	-
CCCNC(=O)CN1C(=O)COc2ccc(S(=O)(=O)N3CC(C)CC(C)C3)cc21 (configuration not stated)	-	-	-	-46	-
N#Cc1ccc(-c2csc(N3CCC(C(N)=O)CC3)n2)cc1	-	.	.	.	.
COc1cc(/C=C/C(=O)OCC(=O)NC2CC2)cc(S(=O)(=O)N2CCc3ccccc32)c1OC	-	-	-	-	-
COc1cc(/C=C/C(=O)OCC(=O)Nc2ccc(NC(C)=O)cc2)cc(S(=O)(=O)N2CCc3ccccc32)c1OC	-	-	-	-45	-
O=C(N/N=C/c1ccc([N+](=O)[O-])o1)c1cc(-c2ccncc2)nc2ccccc12	-	-	-	-	-
Cc1ccc(/C=N/NC(=O)c2cc(-c3ccncc3)nc3ccccc23)o1	-	-	-	-	-
Cc1ccc(-c2cc(C(=O)N/N=C/c3ccc([N+](=O)[O-])o3)c3ccccc3n2)o1	-	-92	-	-	-
O=C(N/N=C/c1ccc([N+](=O)[O-])o1)c1cc(-c2ccc(-c3ccccc3)cc2)nc2ccccc12	-	-98	-	-	-
Cc1cc2ncn(/N=C/c3ccc([N+](=O)[O-])o3)c2cc1C	-	?	58µM	-	-
Cc1cc(N/N=C/c2ccc([N+](=O)[O-])o2)nc2ccccc12	-	-82	-	-	-
COC(=O)C1=C[C@@H](C(=O)OC)C2C3=C(C(=O)[C@@]2(C)NC(=O)c2ccccc2)[C@H](C)[C@@H]2C(=O)NC(=O)[C@@H]2[C@@H]3C1 (some centres not stated)	.	-	.	.	.
SMILES	Mm-Cpn inhibitor	Giardia kill	Rango-impB inh	CCT chaperon mod	Rango release inh
O=C(COC(=O)C12CC3CC(CC(Cl)(C3)C1)C2)NCc1ccco1	.	-	.	.	.
COc1ccc(C2CC(c3ccccc3)Oc3cc(C)cc(C)c32)cc1 (configuration not stated)	.	-	.	.	.
Cc1ccc(-c2cc(C(=O)Nc3cccc(S(=O)(=O)N(C)C)c3)c3ccccc3n2)o1	-	-	?	-	15µM
CCOc1cc(-c2ccc3c(c2)OCO3)cc(=[O+]CC)c2c(C)oc(C)c12	.	-	.	.	.
CCCCNc1ncnc2oc(-c3ccco3)c(-c3ccco3)c12	.	-	.	.	.
CCC(C)Nc1ccc(NC(C)CC)cc1 (configuration not stated)	-	-101!	?	-	-
CCC(C)NC(=O)Nc1ccc(Br)cc1 (configuration not stated)	-	-	-	-	-
COC(=O)C(C(=O)OC)=C(/C=C/C=C/N(C)C)N(C)C	-	-	?	-	9.2µM
COC(=O)C(C(=O)OC)=C(/C=C/N(C)C)N(C)C	-	-	-	-	-
CCNC(=S)NNC(=O)c1cc(-c2ccc(OCC)cc2)nc2ccccc12	-	-81	-	-	-
CCNC(=S)NNC(=O)c1cc(-c2cccc(OC)c2)nc2ccccc12	-	-	-	-	-
CCc1ccc(-c2cc(C(=O)Nn3cnnc3)c3ccccc3n2)cc1	-	-100	-	-	-
COc1ccc(CNCCCC(=O)Nc2c(Cl)ccc(C)c2Cl)cc1OC	-	-	-	-48	-
COc1ccc(CCNCCC(=O)Nc2c(C)cc(C)cc2C)cc1OC	-	-	-	-	-
COc1cccc2sc3cc(NCc4ccc5c(c4)OCO5)ccc3c(=O)c12	-	-	?	-	21µM
COc1cc2sc3cc(NCc4ccc5c(c4)OCO5)ccc3c(=O)c2cc1OC	?	-	?	-	?
O=C(c1ccco1)N1CCC(c2nc(-c3ccccc3Cl)no2)CC1	-	-	-	-	-
O=C(c1ccco1)N1CCC(c2nc(-c3ccc(F)cc3)no2)CC1	-	-	-	-35	-
CC(C)(C)C(=O)Nc1ccc(NC(=O)c2ccco2)nc1	-	-94	-	-	-
O=C(Nc1ccc(NC(=O)c2ccco2)nc1)c1ccco1	-	?	-	-	-
Cc1ccc2nc(-c3ccc(N=Nc4cc(S(=O)(=O)O)c5ccccc5c4O)cc3)sc2c1S(=O)(=O)O	.	-	.	.	.
CSc1nc(-c2ccccc2)nn1S(=O)(=O)c1ccccc1	-	-	-	-50	-
CSc1nc(-c2ccccc2)nn1S(=O)(=O)c1ccc(Cl)cc1	-	-	-	-	-
CCCNC(=O)Cn1c(SCc2ccccc2C)nc2ccncc21	.	-	.	.	.
COc1ccc(-c2nnc(NC(=O)C(C)C)o2)cc1	-	-	-	-39	-
COc1ccc(-c2nnc(NC(=O)C3CC3)o2)cc1	-	-	-	-	?
O=C1NCCN1c1ncc([N+](=O)[O-])s1	-	-88	-	-	-
CCOC(=O)c1cc2c(C(F)(F)F)cc(-c3cccnc3)nc2o1	-	-	-	-32	-
